The source of these data is US7214509B2, “Methods and compositions for degradation of nitroaromatic and nitramine pollutants” (dated 2007).

Data set [1] has as its system Methylobacterium sp. BJ001. Briefly: Transformation and mineralization of 14C-TNT, 14C-RDX, 14C-HMX by pure cultures of Methylobacterium sp. BJ001 in LB liquid medium (bioreactors, 55 days). The note with it: for Bacterial growth (OD600) in the presence of the compound, by comparison to the control bioreactor / Time until the compound disappeared completely / reached non-detectable levels in solution: BJ001 in LB liquid medium, TNT 25, RDX 20, HMX 2.5 mg L^−1.

For data set [2], the system named is M. rhodesianum. Put plainly: Mineralization by members of the genus Methylobacterium on LB medium with succinate, 20 days. Particulars: M. rhodesianum biomass in presence of the compound.
Data set [3] has as its system BJ001. The description is as above. The note with it: BJ001 biomass in presence of the compound.
Data set [4] relates to M. organophilum. The description is as above. The note with it: M. organophilum biomass in presence of the compound.
For data set [5], the system named is M. extorquens. The description is as above. Particulars: M. extorquens biomass in presence of the compound.
The subject of data set [6] is Methylobacterium sp. BJ001. Put plainly: Carbon source utilization in minimal liquid medium (biomass dry weight). The note with it: 1.0 g L^−1 in minimal liquid medium with NH4NO3.
For data set [7], the system named is Methylobacterium sp. BJ001. Briefly: Mineralization by growing cells of Methylobacterium sp. BJ001 in minimal medium with different carbon/nitrogen sources (LB as positive control), 20 days. Particulars: bacterial biomass in presence of the compound.
The conditions of data set [8]: recommended (refs 7, 37); cited from earlier work.
The mark [9] stands for this setting: minimal medium with NH4NO3 only.
The mark [10] stands for this setting: minimal medium, no Fructose and no NH4NO3.
[11] abbreviates: minimal medium with Fructose only.

Each structure is given as a SMILES string. This is a selection: effects in other tests are not listed, and their absence says nothing.

Turning to `O=[N+]([O-])N1CN([N+](=O)[O-])CN([N+](=O)[O-])CN([N+](=O)[O-])C1`, the “Bacterial growth (OD600) in the presence of the compound, by comparison to the control bioreactor” value (“Bacterial growth (OD600) in the presence” for short) in data set [1] is listed as “not significantly affected”. For the same compound, the “Time until the compound disappeared completely / reached non-detectable levels in solution” value in data set [1] came out at 40 days. The “Biomass” value in data set [2] was found to be 0.98 ± 0.08 mg/L; in data set [3], 0.99 ± 0.06 mg/L; in data set [4] it was 1.19 ± 0.10 mg/L; in data set [5], 1.12 ± 0.06 mg/L; in data set [7] (setting [9]), 0.09 ± 0.04 mg/L; in data set [7] (setting [10]), 0.16 ± 0.06 mg/L. Also, the “Growth of BJ001 on the compound as carbon source” value (shortened to “Growth of BJ001 on the compound”) in data set [6] is given as “no growth”.

Consider `O=NN1CN([N+](=O)[O-])CN([N+](=O)[O-])C1`, for which, in data set [1] (metabolites of 14C-TNT (ADNTs, DNATs) or 14C-RDX (MNX) formed by BJ001 in LB medium), the “Time at which the transient metabolite reached a maximum” value was found to be 4 days.

Consider `O=[N+]([O-])N1CN([N+](=O)[O-])CN([N+](=O)[O-])C1`, for which, in data set [1], the “Bacterial growth (OD600) in the presence” value is “not significantly affected”. Moreover, in data set [1], the “Time until the compound disappeared completely / reached non-detectable levels in solution” value is listed as 40 days. Besides, the “Biomass” value in data set [2] stood at 0.95 ± 0.15 mg/L; in data set [3], 0.98 ± 0.11 mg/L; in data set [4] it was 1.23 ± 0.07 mg/L; in data set [7] (setting [11]), 0.74 ± 0.16 mg/L; in data set [7] (setting [9]) it was 0.11 ± 0.02 mg/L; in data set [7] (setting [10]) it was 0.14 ± 0.08 mg/L. In data set [6], the “Growth of BJ001 on the compound” value is on record as “no growth”. Besides, the Water-quality limit in data set [8] is 105 µg/L.

Take `Cc1c([N+](=O)[O-])cc([N+](=O)[O-])cc1[N+](=O)[O-]`: the “Bacterial growth (OD600) in the presence” value in data set [1] is reported as “not significantly affected”. In addition, the “Time until the compound disappeared completely / reached non-detectable levels in solution” value in data set [1] is “less than 10 days”. For the same compound, the “Biomass” value in data set [2] turned out to be 1.00 ± 0.04 mg/L; in data set [3] it was 0.97 ± 0.05 mg/L; in data set [4] it was 1.13 ± 0.05 mg/L; in data set [5] it was 1.07 ± 0.08 mg/L; in data set [7] (Control (+) LB medium), 1.06 ± 0.15 mg/L; in data set [7] (minimal medium with Fructose and NH4NO3) it was 0.97 ± 0.06 mg/L. Also, the “Biomass” value in data set [7] (setting [11]) was found to be 0.97 ± 0.13 mg/L; in data set [7] (setting [9]) it was 0.16 ± 0.08 mg/L; in data set [7] (setting [10]), 0.19 ± 0.05 mg/L. The “Growth of BJ001 on the compound” value in data set [6] is “no growth”.
